The list shows a part of the results, in another mix than the full data. Records with an inconclusive call do not appear. Active and inactive are the calls of the source. The call rests on the fitted dose curve; in most records, active means well fitted inhibition curve with a large enough effect; inconclusive means small, poorly fitted or top-dose-only effect, or another doubt; inactive means no such curve, though single readings can be large or run the other way.
On the % scale 0 is the no-effect control and ±100 the full control effect; potency means the concentration at half of the fitted maximal effect.

By UniProt entry, the sequences of proteins in these tests, tags left out. Where a name states a change or a piece, a line headed by the entry shows the natural chain unless it says otherwise.
UniProt Q9Y253: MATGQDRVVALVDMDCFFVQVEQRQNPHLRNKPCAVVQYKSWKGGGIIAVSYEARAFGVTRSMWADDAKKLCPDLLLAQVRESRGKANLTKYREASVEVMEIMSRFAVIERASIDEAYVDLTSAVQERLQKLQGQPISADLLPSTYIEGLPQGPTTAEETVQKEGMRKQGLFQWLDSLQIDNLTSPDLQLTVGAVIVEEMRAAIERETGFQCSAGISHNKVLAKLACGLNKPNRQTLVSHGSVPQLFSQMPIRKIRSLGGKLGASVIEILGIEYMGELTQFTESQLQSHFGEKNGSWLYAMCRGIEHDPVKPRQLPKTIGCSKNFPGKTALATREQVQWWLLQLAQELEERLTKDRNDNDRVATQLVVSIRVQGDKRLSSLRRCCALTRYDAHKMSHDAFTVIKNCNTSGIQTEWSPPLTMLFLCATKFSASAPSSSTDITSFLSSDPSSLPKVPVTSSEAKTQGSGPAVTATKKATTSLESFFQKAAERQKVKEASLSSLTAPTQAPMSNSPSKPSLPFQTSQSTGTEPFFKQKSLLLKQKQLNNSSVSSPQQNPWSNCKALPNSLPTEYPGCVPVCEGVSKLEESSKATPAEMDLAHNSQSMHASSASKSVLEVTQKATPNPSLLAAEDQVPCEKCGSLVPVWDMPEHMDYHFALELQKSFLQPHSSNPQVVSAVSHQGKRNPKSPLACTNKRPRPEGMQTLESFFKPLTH

The target of this experiment is DNA polymerase eta (Homo sapiens) (UniProt Q9Y253). Briefly: qHTS for Inhibitors of Polymerase Eta. The conditions noted are these: recombinant Pol eta, fluorescent DNA replication assay; series mostly up to 114 µM; activity change, negative = inhibition: at the top concentration.
On to `O=P1(Nc2nc3ccc(Cl)cc3s2)COc2ccccc2O1` (centres undefined), for which the “activity change, negative = inhibition” value is inactive: -19.6%.

Turning to `CCOc1ccc(C2=NCC(CBr)S2)cc1` (centres undefined), the “activity change, negative = inhibition” value was inactive: -2.8%.

For the compound `CC(C)(C)C(=O)NC(Sc1ccccc1)C(Cl)(Cl)Cl` (centres undefined), the “activity change, negative = inhibition” value is inactive: -25.5%. Take `CCc1cc(O)c([N+](=O)[O-])c(C)c1[N+](=O)[O-]`: the “activity change, negative = inhibition” value was inactive: -16.6%.

Take `Cc1ccccc1CN(C)C(=O)COC(=O)C(O)(c1ccccc1)c1ccccc1`: the “activity change, negative = inhibition” value is inactive: -16.2%. For `C[C@H]1OP(=O)(Oc2ccccc2)C[C@@H]2O[C@@H]21` (some centres undefined), the “activity change, negative = inhibition” value is inactive: -9.71%. Consider `C[C@@H]1C=CCP(=O)(Oc2ccccc2)O1` (some centres undefined), for which the “activity change, negative = inhibition” value was inactive: -19.2%. As for `CC(=O)c1ccc(N2CC2c2ccncc2)cc1` (centres undefined), the “activity change, negative = inhibition” value was inactive: -22%. On the same count and under the same terms, to `COC(=O)C1(C)COP(=O)(NCc2ccccc2)OC1` (centres undefined) belongs inactive: -5.51%. In the case of `CC(=O)Nc1ccc([As](=O)(O)O)c(O)c1`, the “activity change, negative = inhibition” value was inactive: -21.6%. For the compound `CC(=O)Nc1ccc(Oc2c([N+](=O)[O-])cc([N+](=O)[O-])cc2[N+](=O)[O-])cc1`, the “activity change, negative = inhibition” value is inactive: -3.97%. As for `Cc1ccc(N/C(=N/P(=O)(N2CCOCC2)N2CCOCC2)N2CCOCC2)cc1`, the “activity change, negative = inhibition” value was inactive: -18.1%. As to `NC(=O)c1cc([N+](=O)[O-])cc([N+](=O)[O-])c1N`, the “activity change, negative = inhibition” value was inactive: -17.4%.

Turning to `CN1CCCC(OC(=O)C(c2ccccc2)c2ccccc2)C1` (centres undefined), the “activity change, negative = inhibition” value was inactive: -14.8%. Still for that read-out and setting: to `COc1ccccc1OP(=O)(Nc1ccc(C)cn1)Oc1ccccc1OC` belongs inactive: 1.79%; to `Cc1ccc(OP(=O)(Nc2nccs2)Oc2ccc(C)cc2)cc1`, inactive: -21.3%; to `Oc1ccccc1CNc1ccccn1`, inactive: -2.86%. As for `O=C(NC(Sc1ccncn1)C(Cl)(Cl)Cl)c1ccccc1` (centres undefined), the “activity change, negative = inhibition” value was inactive: -6.49%. For `Nc1cc(N)c2nonc2c1[N+](=O)[O-]`, the “activity change, negative = inhibition” value is inactive: -16.4%. `CC(C)CC(=O)NC(Sc1ccc(Cl)cc1)C(Cl)(Cl)Cl` (centres undefined): the “activity change, negative = inhibition” value was inactive: -0.237%. Regarding `O=P(Nc1nc2ccc(Cl)cc2s1)(c1ccccc1)c1ccccc1`, the “activity change, negative = inhibition” value is inactive: -19.8%. In the case of `CN(C)P(=O)(N(C)C)n1c(Nc2ccccc2)nnc1-c1ccccc1`, the “activity change, negative = inhibition” value is inactive: -17.6%. Consider `CC(=O)Nc1ccc([As](=O)(O)O)cc1`, for which the “activity change, negative = inhibition” value is inactive: -14.9%. On to `O=C(O)c1ccccc1[As](=O)(O)O`, for which the “activity change, negative = inhibition” value is inactive: 8.83%. As for `CCCC1OP(N)(=O)OCC1CC` (centres undefined), the “activity change, negative = inhibition” value was inactive: -13.2%. Turning to `Cc1cc(SC(NC(=O)c2ccc(F)cc2)C(Cl)(Cl)Cl)ncn1` (centres undefined), the “activity change, negative = inhibition” value was inactive: -6.22%.

`CCOP(=O)(Nc1ccccc1)OCC`: the “activity change, negative = inhibition” value is inactive: -11.1%. As for `CN(C(=O)Cc1ccc(Cl)c(Cl)c1)[C@H]1CCCC[C@@H]1N1CCCC1`, the Potency entry is “inactive”. Take `Cc1ccc(NP(=O)(Oc2ccccc2F)Oc2ccccc2F)nc1`: the “activity change, negative = inhibition” value is inactive: 1.63%.

For `Nc1cccc2ccc([As](=O)(O)O)cc12`, the Potency is active: 22.4 µM.

Turning to `CCN(N=Nc1nonc1N)c1nonc1N`, the “activity change, negative = inhibition” value is inactive: -4.13%.

For the compound `O=P1(N(CCCl)CCCl)OCCCS1` (centres undefined), the “activity change, negative = inhibition” value was inactive: -12.4%. For `O=C(Nc1cc([As](=O)(O)O)ccc1O)c1ccccc1`, the “activity change, negative = inhibition” value is inactive: 5.71%. Still for that read-out and setting: to `O=[N+]([O-])c1ncn(CCn2ncnc2[N+](=O)[O-])n1` belongs inactive: -6.73%.

In the case of `CC(C)(C)C(=O)NC(Sc1ccncn1)C(Cl)(Cl)Cl` (centres undefined), the “activity change, negative = inhibition” value was inactive: -7.58%. Turning to `O=C(O)CNc1ccc([As](=O)(O)O)cc1`, the “activity change, negative = inhibition” value was inactive: 3.42%. As for `COC(=O)C1(C)COP(=O)(Nc2ccccc2)OC1` (centres undefined), the “activity change, negative = inhibition” value was inactive: -18.3%.

With `O=[N+]([O-])c1cccc(NC2=NCC(CBr)S2)c1` (centres undefined), the “activity change, negative = inhibition” value is inactive: -17.9%.

`COc1ccc(C2=NCC(CBr)S2)cc1` (centres undefined): the “activity change, negative = inhibition” value is inactive: -18.1%. Consider `Cc1ccc(NP(=O)(Oc2ccccc2)Oc2ccccc2)nc1`, for which the “activity change, negative = inhibition” value was inactive: -3.88%. In the case of `CC(=O)N1C2C3N(C(C)=O)C1C1N(C(C)=O)C(C(N1C(C)=O)N3C(C)=O)N2C(C)=O`, the “activity change, negative = inhibition” value is inactive: -4.96%. In the case of `O=[N+]([O-])c1cccc2n[nH]nc12`, the “activity change, negative = inhibition” value was inactive: 3.59%. Still for that read-out and setting: the value for `CCN(/C(=N/P(=O)(N1CCOCC1)N1CCOCC1)N1CCOCC1)c1ccc(OC)cc1` was inactive: -11.2%. In the case of `Nc1ccc([As](=O)(O)c2ccc(N)cc2)cc1`, the “activity change, negative = inhibition” value is inactive: -19.3%.

On to `CC1CCN(C(=O)Oc2c(Cl)cc(Cl)c3cccnc23)CC1`, for which the “activity change, negative = inhibition” value is inactive: -15.9%. On to `c1cc(-c2nn[nH]n2)ccc1-c1nn[nH]n1`, for which the “activity change, negative = inhibition” value was inactive: -10%.

On to `CC(C)c1nc(Nc2ccccc2)n(P(=O)(N(C)C)N(C)C)n1`, for which the “activity change, negative = inhibition” value is inactive: -20.6%. The same measure, in the same setting: to `CC(C)=N/N=C(\N)N[N+](=O)[O-]` belongs inactive: -16.2%. Consider `CN(C)C(=O)OCCc1n(C)cc[n+]1C`, for which the “activity change, negative = inhibition” value was inactive: -22.9%.

Source of the values: PubChem BioAssay AID588591 (National Center for Advancing Translational Sciences (NCATS), 2011).
